# Reported properties for industrial, environmental and drug-like chemicals

Source: data files of OPERA 2.9 (Mansouri et al.), github.com/kmansouri/OPERA.

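The OPERA project collected these measurements from public sources as training and test data for property models. A listed value is a point estimate from one report or more. Conditions of the individual experiments are not part of the data. A value may pool stereoisomers or salt forms, and the file does not say which form was measured. Some upstream entries may be estimates or bounds without being marked so.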

The melting point is given in degrees Celsius. Boiling points are in °C, nominally at 760 mmHg. logP is the log10 of the octanol-water partition coefficient; higher is more lipophilic. Solubility in water is on a log10 molar scale (set defined at 25 °C). Vapor pressure is log10 of mmHg; the set covers 15 to 30 °C, mostly 20 to 25 °C. The Henry's law constant is on a log10 scale in atm·m3/mol (set defined at 25 °C); higher favours air over water. Clint is human hepatic intrinsic clearance in µL/min per million cells; 0 means that no clearance was seen.

Listed for CCCCC(CC)COC(=O)c1ccccc1O (configuration not stated) [2-Ethylhexyl salicylate]: log solubility -5.7 (log10 mol/L) and log vapor pressure -3.64 (log10 mmHg).
Listed for CCC/C=C/C=O [(2E)-2-Hexenal]: mp -55.6 °C and log solubility -1.271 (log10 mol/L) and log vapor pressure 0.847 (log10 mmHg).
Listed for N[C@@H](CCSC[C@H](N)C(=O)O)C(=O)O [S-(2-Amino-2-carboxyethyl)homocysteine]: mp 312 °C and log solubility -1.004 (log10 mol/L).
Listed for CC(C)(NC(=O)NCc1ccccc1Cl)c1ccccc1 [Cumyluron]: log solubility -5.48 (log10 mol/L) and log vapor pressure -9.001 (log10 mmHg).
Listed for O=C1COCCO1 [Dioxanone]: mp 28.2 °C and bp 219.9 °C and log vapor pressure -0.965 (log10 mmHg).
Listed for CC(=O)OC(C)C1CCCCC1 (configuration not stated) [1-Cyclohexylethyl acetate]: log Kow 3.2 and log solubility -3.598 (log10 mol/L) and log vapor pressure -0.539 (log10 mmHg).
Listed for COC(=O)c1c(Cl)c(Cl)c(C(=O)SC)c(Cl)c1Cl [Glenbar]: mp 161.5 °C and log solubility -5.985 (log10 mol/L).
Listed for O=C(Cl)c1cc(F)c(F)cc1F [2,4,5-Trifluorobenzoyl chloride]: mp -19.9 °C and log vapor pressure -0.284 (log10 mmHg).
Listed for CN(CCO)S(=O)(=O)C(F)(F)C(F)(F)C(F)(F)C(F)(F)F [2-(N-(Perfluorobutylsulfonyl)-N-methylamino)ethanol]: mp 64.8 °C and log solubility -3.404 (log10 mol/L) and log vapor pressure -4.523 (log10 mmHg).
Listed for CNC(=O)c1cc(C#N)cc(C)c1N [2-Amino-5-cyano-N,3-dimethylbenzamide]: mp 204.5 °C and bp 302 °C and log Kow 1.42 and log solubility -3.047 (log10 mol/L) and log vapor pressure -6.231 (log10 mmHg).
Listed for C=C(C)C(=O)O[Si](C(C)C)(C(C)C)C(C)C [Tri(propan-2-yl)silyl 2-methylprop-2-enoate]: bp 238.5 °C and log solubility -6.084 (log10 mol/L).
Listed for Cc1cc(N(C)C)nc(Cl)n1 [Crimidine]: log vapor pressure -1.638 (log10 mmHg) and Henry's law constant -7.423 (log10 atm·m3/mol).
Listed for N#CNC(=N)NCCCCCCNC(=N)NC#N [Guanidine, N,N'''-1,6-hexanediylbis[N'-cyano-]: log Kow 0.6 and log solubility -4.571 (log10 mol/L).
Listed for C[C@@H]1CCN(c2nc3cc(Cl)ccc3o2)CCN1.Cl: mp 225.5 °C and log Kow 3.19 and log vapor pressure -7.188 (log10 mmHg).
Listed for Nc1ccccc1S(=O)(=O)O [Orthanilic acid]: log solubility -1.747 (log10 mol/L) and log vapor pressure -6.694 (log10 mmHg).
Listed for CC(C)C1OC2(CCCC2)OCC1(C)C (configuration not stated) [6,10-Dioxaspiro[4.5]decane, 8,8-dimethyl-7-(1-methylethyl)-]: log Kow 5.33 and log solubility -3.524 (log10 mol/L).
Listed for O=S(=O)(O)c1cc(O)c2ccc(Nc3ccccc3)cc2c1 [4-Hydroxy-7-(phenylamino)naphthalene-2-sulfonic acid]: mp 363.7 °C and log solubility -2.729 (log10 mol/L).
Listed for C=CC(=O)OCC(CC)(COCC(CC)(COC(=O)C=C)COC(=O)C=C)COC(=O)C=C [Ditrimethylolpropane tetraacrylate]: mp -56 °C and log Kow 4.14 and log solubility -4.493 (log10 mol/L).
Listed for CC(=O)NCC(=O)NCCC(=O)O [N-Acetylglycyl-beta-alanine]: mp 167 °C and log Kow -1.72 and log vapor pressure -4.617 (log10 mmHg).
Listed for NCCN1CCNC1=O [1-(2-Aminoethyl)imidazolidin-2-one]: log Kow 0.017 and log vapor pressure -3.014 (log10 mmHg).
Listed for C[C@H](/C=C/[C@H](C)C(C)(C)O)[C@H]1CC[C@H]2/C(=C/C=C3C[C@@H](O)C[C@H](O)C3)CCC[C@]12C [Paricalcitol]: log Kow 4.5 and log solubility -4.787 (log10 mol/L).
Listed for CC(C)COC(=O)CCCCC(=O)OCC(C)C [Diisobutyl adipate]: log Kow 4.3 and log solubility -3.821 (log10 mol/L) and hepatic Clint 865 µL/min/10^6 cells.
Listed for COC(=O)CC(OC)c1ccc(OC)cc1 (configuration not stated) [Methyl beta,4-dimethoxybenzenepropanoate]: mp 15.7 °C and log Kow 1.89 and log solubility -2.343 (log10 mol/L) and log vapor pressure -3.949 (log10 mmHg).
Listed for C[C@@]12CCC(=O)C=C1CC[C@H]1[C@H]2CC[C@]2(C)[C@@H]1CC[C@]21CCC(=O)O1 [6,7-Dihydrocanrenone]: mp 158 °C and log solubility -4.225 (log10 mol/L) and log vapor pressure -11.37 (log10 mmHg).